Among the data in patent US5885834A, “Antisense oligodeoxynucleotide against phosphodiesterase” (priority 1997, dated 1999) are Induction of apoptosis values, retold here.

This experiment deals with NA. The settings on record: 100 μM. The procedure:
Cells (10^6) were collected by centrifugation at 670×g for 5 min. The cell pellets were rinsed once with 0.2M dibasic sodium phosphate and lysed in 300 μl of lysis buffer (50 mM Tris/HCl pH 7.5, 10 mM EDTA, 1% V/V Triton X-100) for 20 min on ice. Proteinase K was added to 0.5 mg/ml and DNase-free RNase was added to 50 μg/ml and the extract incubated at 37° C. for 1 hr. DNA was then extracted in phenol/chloroform (1:1) and chloroform (1:1) and precipitated in 2.5 volumes of ethanol. The extracted DNA was electrophoresed on 2% agarose gels, the gels stained with 0.5 μg/ml ethidium bromide and photographed under UV light.

Molecules are shown by their SMILES.

`CCOC(=O)C1=C[C@]2(CC)CCCN3CCc4c(n1c1ccccc41)[C@@H]32` [vinpocetine]: the Induction of apoptosis result was “induced apoptosis”.
